The values below come from patent publication US7993756B2, “Long-chain quaternary ammonium compounds as wood treatment agents” (Viance, LLC, priority 2005, dated 2011).

This data set in a line: Water solubility of 2HT. It is filed as physicochemical. The note with it: ambient temperatures. On the procedure: At ambient or lower than ambient temperatures, 2HT and water mixtures exist as a gel or paste. The viscosity of 2HT/water binary systems can be adjusted by changing the anion. When heated to 40-100° C., 2HT exists as a transparent solution in water or aqueous preservative solutions. Although soluble in water or aqueous preservative solutions at elevated temperatures, 2HT appears to be well fixed in wood substrates. It is believed that 2HT is fixed inside wood structures through physical absorption, precipitation, chemical, and physicochemical interactions.

As to “dimethyl di(hydrogenated tallow) ammonium compound [2HT]”, the water solubility result was “low water solubility”.
